For the test, the system named is Phospholipase A2 group IB, pancreatic (Sus scrofa). Nature of the test: Inhibition of secretory PLA2 activity in porcine pancreas using [3H]-oleate labelled membranes at a concentration of 10 uM.

This is an account of results in ChEMBL document CHEMBL1133383, “Synthesis and enzyme inhibitory activities of a series of lipidic diamine and aminoalcohol derivatives on cytosolic and secretory phospholipases A2” (Bioorg Med Chem Lett, 2000).

On to `CCCCCCCCCCCCCCC(CO)NCC` (configuration not stated), for which the I came to 81.9%.

Regarding `CCCCCCCCCCCCCCC(N)CN(CC)CC` (configuration not stated), the I turned out to be 68.5%.
